Source: PubChem BioAssay (NCATS)
Only a part is listed here, and it is no random draw. Results filed as inconclusive are left out. Active and inactive are the calls of the source. Unless noted, calls follow the shape of the dose curve; as a rule, active = well fitted curve in the direction sought with a large enough effect; inconclusive = small, poorly fitted or top-dose-only effect, or another doubt; inactive = no such curve, though single readings can be large; an effect the other way counts as inactive or inconclusive.

Chains of the proteins cited; added tags and fusions are not shown. Lines headed by an entry give the natural chain unless they say otherwise; changes in a name come on top.
UniProt P27695, whole entry, looked up: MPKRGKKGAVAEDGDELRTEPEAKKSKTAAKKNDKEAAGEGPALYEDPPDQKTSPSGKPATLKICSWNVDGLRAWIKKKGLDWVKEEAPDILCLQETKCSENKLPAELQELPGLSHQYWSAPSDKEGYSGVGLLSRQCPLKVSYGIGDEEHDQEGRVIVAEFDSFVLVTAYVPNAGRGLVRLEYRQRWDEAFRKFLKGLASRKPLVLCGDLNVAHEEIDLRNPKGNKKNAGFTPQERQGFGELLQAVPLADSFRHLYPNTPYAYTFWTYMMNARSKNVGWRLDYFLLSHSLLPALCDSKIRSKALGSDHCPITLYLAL
UniProt P02791: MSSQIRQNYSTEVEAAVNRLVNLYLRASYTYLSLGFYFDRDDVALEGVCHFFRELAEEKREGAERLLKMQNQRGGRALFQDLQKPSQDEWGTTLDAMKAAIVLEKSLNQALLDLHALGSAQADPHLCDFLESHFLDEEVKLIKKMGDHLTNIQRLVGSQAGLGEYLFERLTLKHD
UniProt P46063: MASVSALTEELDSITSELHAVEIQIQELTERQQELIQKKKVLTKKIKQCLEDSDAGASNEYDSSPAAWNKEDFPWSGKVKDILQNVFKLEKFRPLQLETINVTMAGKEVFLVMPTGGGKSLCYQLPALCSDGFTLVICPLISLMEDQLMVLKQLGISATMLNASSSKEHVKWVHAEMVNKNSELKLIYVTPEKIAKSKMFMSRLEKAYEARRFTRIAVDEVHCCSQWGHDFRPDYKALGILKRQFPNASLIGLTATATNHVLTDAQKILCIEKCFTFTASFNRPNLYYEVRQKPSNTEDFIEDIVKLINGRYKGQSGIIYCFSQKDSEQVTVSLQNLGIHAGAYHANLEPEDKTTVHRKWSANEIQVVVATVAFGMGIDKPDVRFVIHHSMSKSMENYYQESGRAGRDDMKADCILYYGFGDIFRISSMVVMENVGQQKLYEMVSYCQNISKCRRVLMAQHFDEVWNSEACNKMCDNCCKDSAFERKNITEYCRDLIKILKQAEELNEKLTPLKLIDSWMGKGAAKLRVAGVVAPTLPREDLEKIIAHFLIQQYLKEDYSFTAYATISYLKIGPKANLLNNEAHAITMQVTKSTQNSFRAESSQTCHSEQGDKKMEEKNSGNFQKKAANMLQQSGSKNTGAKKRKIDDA
UniProt P54132: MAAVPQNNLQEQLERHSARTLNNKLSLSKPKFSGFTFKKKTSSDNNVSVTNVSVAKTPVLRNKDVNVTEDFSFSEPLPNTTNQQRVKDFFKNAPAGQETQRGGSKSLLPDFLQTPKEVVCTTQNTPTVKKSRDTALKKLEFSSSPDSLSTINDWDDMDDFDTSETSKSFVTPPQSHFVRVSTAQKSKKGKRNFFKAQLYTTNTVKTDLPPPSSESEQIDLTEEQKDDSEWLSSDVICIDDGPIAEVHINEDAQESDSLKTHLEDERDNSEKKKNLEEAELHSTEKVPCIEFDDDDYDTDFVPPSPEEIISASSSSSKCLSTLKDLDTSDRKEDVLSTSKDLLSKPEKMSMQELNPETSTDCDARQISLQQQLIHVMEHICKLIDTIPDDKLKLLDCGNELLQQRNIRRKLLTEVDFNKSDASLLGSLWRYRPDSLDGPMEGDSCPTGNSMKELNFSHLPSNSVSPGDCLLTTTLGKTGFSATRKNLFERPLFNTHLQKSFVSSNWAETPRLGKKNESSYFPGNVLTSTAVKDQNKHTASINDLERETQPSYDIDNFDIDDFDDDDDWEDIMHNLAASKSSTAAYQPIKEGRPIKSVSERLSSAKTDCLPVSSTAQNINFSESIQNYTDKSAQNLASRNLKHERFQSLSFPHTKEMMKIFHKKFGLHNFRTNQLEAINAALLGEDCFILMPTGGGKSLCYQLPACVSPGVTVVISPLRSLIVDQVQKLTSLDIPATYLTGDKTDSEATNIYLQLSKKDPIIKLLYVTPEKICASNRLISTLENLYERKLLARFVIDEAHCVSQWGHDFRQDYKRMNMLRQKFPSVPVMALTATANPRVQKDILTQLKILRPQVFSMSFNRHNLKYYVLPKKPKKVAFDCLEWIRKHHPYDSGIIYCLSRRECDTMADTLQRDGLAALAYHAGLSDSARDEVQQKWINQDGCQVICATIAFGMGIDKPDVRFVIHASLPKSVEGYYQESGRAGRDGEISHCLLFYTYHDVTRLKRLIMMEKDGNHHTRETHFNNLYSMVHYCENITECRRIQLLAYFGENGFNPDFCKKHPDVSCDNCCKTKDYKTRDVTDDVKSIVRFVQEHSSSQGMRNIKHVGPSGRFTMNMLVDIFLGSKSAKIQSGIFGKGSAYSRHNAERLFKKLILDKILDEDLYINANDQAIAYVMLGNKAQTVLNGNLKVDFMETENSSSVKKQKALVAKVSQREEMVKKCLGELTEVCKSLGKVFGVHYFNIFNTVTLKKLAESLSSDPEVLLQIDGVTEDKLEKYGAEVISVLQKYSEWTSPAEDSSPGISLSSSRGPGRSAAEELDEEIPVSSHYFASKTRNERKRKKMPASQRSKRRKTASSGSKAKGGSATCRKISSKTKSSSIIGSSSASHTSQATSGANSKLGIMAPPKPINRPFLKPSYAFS
UniProt O75604: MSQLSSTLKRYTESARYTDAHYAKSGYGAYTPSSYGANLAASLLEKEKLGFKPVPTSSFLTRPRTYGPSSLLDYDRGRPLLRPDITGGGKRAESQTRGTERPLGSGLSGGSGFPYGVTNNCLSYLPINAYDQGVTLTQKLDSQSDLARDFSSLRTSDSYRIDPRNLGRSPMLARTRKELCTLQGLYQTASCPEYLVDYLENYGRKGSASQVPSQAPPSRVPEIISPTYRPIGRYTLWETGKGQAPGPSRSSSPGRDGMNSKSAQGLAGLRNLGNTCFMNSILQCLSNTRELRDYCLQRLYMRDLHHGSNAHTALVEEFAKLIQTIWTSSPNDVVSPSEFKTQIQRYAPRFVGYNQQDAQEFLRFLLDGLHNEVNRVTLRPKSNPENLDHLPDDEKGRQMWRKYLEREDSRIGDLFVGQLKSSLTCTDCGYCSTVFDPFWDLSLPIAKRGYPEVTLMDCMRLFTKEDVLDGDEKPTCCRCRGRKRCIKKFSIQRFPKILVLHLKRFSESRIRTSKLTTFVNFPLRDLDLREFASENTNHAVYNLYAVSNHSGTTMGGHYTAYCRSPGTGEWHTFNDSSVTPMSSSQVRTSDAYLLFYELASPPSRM
UniProt O89049, whole entry, looked up: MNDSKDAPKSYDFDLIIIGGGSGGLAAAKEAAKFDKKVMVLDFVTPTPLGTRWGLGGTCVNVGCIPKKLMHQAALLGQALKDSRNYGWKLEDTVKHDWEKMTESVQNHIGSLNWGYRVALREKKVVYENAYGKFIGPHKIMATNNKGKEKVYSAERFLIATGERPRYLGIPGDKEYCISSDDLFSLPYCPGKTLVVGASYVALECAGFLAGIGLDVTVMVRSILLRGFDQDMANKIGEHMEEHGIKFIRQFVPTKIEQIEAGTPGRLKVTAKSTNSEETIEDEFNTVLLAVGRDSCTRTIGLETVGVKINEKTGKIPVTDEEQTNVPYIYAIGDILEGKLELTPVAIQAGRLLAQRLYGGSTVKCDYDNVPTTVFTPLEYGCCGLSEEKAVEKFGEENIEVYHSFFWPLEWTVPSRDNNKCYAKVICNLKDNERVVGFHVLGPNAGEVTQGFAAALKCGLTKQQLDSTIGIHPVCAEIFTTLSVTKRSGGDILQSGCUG

Assays:
[1] = Validation of Assay for Modulators of Lamin A Splicing (AID 1459; active = well fitted curve in the direction sought with a large enough effect in the signal ratio; the % refers to the signal ratio;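 also: cells exposed to compound for two days before reading; 0% is about no effect; ratio rise marks activators and ratio drop marks inhibitors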); conditions: Lamin A splicing dual RFP/GFP fluorescence reporter; at 9.22 µM (top of the series)
Summary of the method: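 Readout: ratio of GFP (500-530 nm) to RFP (575-640 nm) total object intensity by 488 nm laser-scanning cytometry after 48 hrs. Cells were HeLa S3 clones carrying lamin A-EGFP minigene plus DsRed2 viability reporter; vehicle 0.5% DMSO final.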

[2] = qHTS Assay for Lipid Storage Modulators (AID 1519; calls by dose curve; also: % is scaled to controls: 0 for no effect and ±100 for the full control effect); conditions: Drosophila S3 cells, BODIPY lipid droplet/cell ratio, laser cytometry, cells loaded with oleic acid; at 57.5 µM (top of the series)
[3] = target: DNA repair nuclease/redox regulator APEX1 (Homo sapiens) (UniProt P27695); test: qHTS Validation Assay for Inhibitors of the Human Apurinic/apyrimidinic Endonuclease 1 (APE1) (AID 1705;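 also: TAMRA fluorescence gain over two minutes as APE1 cuts a quenched THF abasic duplex; % is scaled to controls: 0 for no effect and ±100 for the full control effect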); conditions: purified APE1 endonuclease activity, fluorescence, titration; at 57.1 µM (top of the series)
Summary of the method: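 Read-out: TAMRA fluorescence (525 nm ex, 598 nm em) from cleavage of a quenched THF abasic-site duplex, 50 nM final; activity taken as intensity change between third and first of three reads 60 s apart.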

[4] = Counterscreen for APE1 Inhibitors: Fluorescent Dye Displacement Validation Assay (AID 1707); conditions: fluorescent dye displacement from DNA; at 57.1 µM (top of the series);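 also: plate controls were ThO with dsDNA and no compound for no effect and ThO without dsDNA for full effect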
Summary of the method: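 Thiazole Orange (250 nM) bound to 50 nM TAMRA-labelled dsDNA with tetrahydrofuran abasic site; displacement by DNA-binding compounds lowers fluorescence. Buffer 50 mM Tris-HCl pH 7.5, 50 mM NaCl, 2 mM MgCl2, 0.01% Tween-20; endpoint read at 480/540 nm.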

[5] = target: Ferritin light chain (Equus caballus) (UniProt P02791); test: qHTS Validation Assay for Identification of Novel General Anesthetics (AID 2323); conditions: horse apoferritin, anesthetic-site fluorescent probe displacement; at 76.9 µM (top of the series); also: % is scaled to controls: 0 for no effect and ±100 for the full control effect
Summary of the method: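 10 uM horse-spleen apoferritin + 1-AMA (50% saturated, PBS); cpd pin-transferred, 10 min RT. Ex 380/Em 535 nm endpoint. Activity normalized between free 1-AMA and 1-AMA/apoferritin; 4-parameter Hill fit of concentration-response.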

[6] = target: ATP-dependent DNA helicase Q1 (Homo sapiens) (UniProt P46063); test: qHTS Validation Assay for Inhibitors of RecQ-Like Dna Helicase 1 (RECQ1) (AID 2353); conditions: recombinant RECQ1 helicase DNA unwinding assay; at 25.6 µM (top of the series);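 also: plate controls were DMSO vehicle for no effect and enzyme-free control for full effect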
Summary of the method: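 50 nM RECQ1T1 preincubated 15 min with compound in Tris pH 8.0 buffer with MgCl2, DTT, Tween-20 and 2.5 ug/ml poly(dI-dC); started with 200 nM TAMRA/BHQ-2 forked duplex and 2 mM ATP. Unwinding read as fluorescence (525/598 nm), two reads 2 h apart.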

[7] = target: RecQ-like DNA helicase BLM (Homo sapiens) (UniProt P54132); test: qHTS Validation Assay for Inhibitors of Bloom's syndrome helicase (BLM) (AID 2364); conditions: BLM helicase DNA unwinding, fluorescence, in vitro; at 57.1 µM (top of the series);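 also: plate controls were DMSO vehicle for no effect and enzyme-free control for full effect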
[8] = Cytometric Cell-Based qHTS for Inhibitors of the mTORC1 Signaling Pathway in MEF (Tsc2-/-, p53-/-) Cells (AID 2660); conditions: mTORC1 pathway cytometry; at 38.3 µM (top of the series);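 also: percent of cells above a phospho-rpS6 to PI ratio cutoff in each well; plate controls were DMSO for no effect and rapamycin for full effect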
Summary of the method: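 Tsc2-/-, p53-/- MEFs (empty vector) exposed to compound 24 h at 37 C, fixed, stained with Alexa-488 anti-phospho-rpS6 Ser235/236 and propidium iodide. Acumen laser scanning; phospho-S6/PI ratio thresholded against 7.5 nM rapamycin, reported as % positive cells.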

[9] = High Content Imaging Cell-Based qHTS for Inhibitors of the mTORC1 Signaling Pathway in MEF (Tsc2-/-, p53-/-) Cells (AID 2666); conditions: at 38.3 µM (top of the series);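 also: percent of cells scored positive for phospho-rpS6 Ser235/236 immunostaining by imaging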
Summary of the method: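 Phospho-rpS6 (Ser235/236) immunofluorescence, normalized and scored as % positive cells using rapamycin and DMSO controls, was read in empty-vector Tsc2-/-, p53-/- MEFs after 24 h compound exposure at 37 C; propidium iodide counted cells.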

[10] = High Content Imaging Cell-Based qHTS for Inhibitors of the mTORC1 Signaling Pathway in MEF Cells (AID 2667); conditions: at 38.3 µM (top of the series);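 also: Tsc2-/- p53-/- MEFs stably re-expressing wild-type Tsc2 exposed 24 h; plate controls were DMSO wells for no effect and rapamycin control wells for full effect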
Summary of the method: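 WT MEFs (Tsc2-/-, p53-/- re-expressing Tsc2), in DMEM + 10% FBS, were treated with compound for 24 h at 37 C. Cells were then fixed and stained for phospho-rpS6 Ser235/236 with propidium iodide as cell count. Values are % positive cells, with thresholds set against rapamycin-treated cells.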

[11] = Cytometry Cell-Based qHTS for Inhibitors of the mTORC1 Signaling Pathway in MEF cells (AID 2668); conditions: mTORC1 pathway readout; at 38.3 µM (top of the series);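 also: Tsc2-/- p53-/- mouse embryonic fibroblasts stably re-expressing wild-type Tsc2; percent cells positive for phospho-rpS6 Ser235/236 relative to propidium iodide stain; plate controls were DMSO wells for no effect and 7.5 nM rapamycin control wells for full effect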
Summary of the method: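 Read-out: phospho-rpS6 Ser235/236 immunofluorescence normalized to propidium iodide intensity, scored as % active cells against a rapamycin (7.5 nM) threshold. Cells: Tsc2-/-, p53-/- MEFs stably expressing WT Tsc2, compound-treated 24 hrs at 37 degree Celsius.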

[12] = Validation screen for small molecules that induce DNA re-replication in MCF 10A normal breast cells (AID 463097); conditions: MCF 10A cells, DNA re-replication phenotype imaging; at 46.1 µM (top of the series); also: 0% is about no effect; nearly all actives have a fitted effect of over 60% in size
Summary of the method: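 250 MCF 10A cells/well; compound pin-transferred; 48 hr, 37 C, 5% CO2; Hoechst 40 min; imaged 405/500-530 nm. Hits = more high-intensity nuclei.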

[13] = target: Ubiquitin carboxyl-terminal hydrolase 2 (Homo sapiens) (UniProt O75604); test: qHTS Validation Assay for Inhibitors of Ubiquitin-specific Protease USP2a Using CHOP2 as the Reporter (AID 463106); conditions: USP2a cleavage of CHOP2 reporter, enzymatic; at 38.3 µM (top of the series);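 also: plate controls were DMSO for no effect and full inhibition by NEM for full effect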
Summary of the method: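 USP2 core (10 nM final) was preincubated with compound 30 min at RT in pH 8.0 Tris/CaCl2/beta-ME/CHAPS buffer. Ub-CHOP2 and reporter substrate (25 nM final each) were then added, with fluorescence (Ex 485/Em 531) read after 60 min. Data were normalized to NEM full inhibition and fitted to concentration-response curves.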

[14] = target: Beta-2 adrenergic receptor (Homo sapiens) (UniProt P07550); test: qHTS validation assay of beta-arrestin-biased ligands of beta2-adrenergic receptor (AID 485366); conditions: cell-based beta-arrestin recruitment to ADRB2, qHTS; at 46.1 µM (top of the series); also: 0% is about no effect
Summary of the method: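 Tango cells expressing recombinant beta2-AR and beta-arrestin with tTA-driven luciferase, in DMEM with 1% FBS. Compounds were titrated up to 46 microM for 18 hr at 37 degrees C. Luminescence was read 15 min after substrate; curves were fitted and class-assigned.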

[15] = target: Thioredoxin reductase 1, cytoplasmic (Rattus norvegicus) (UniProt O89049); test: qHTS Assay for Inhibitors of Mammalian Selenoprotein Thioredoxin Reductase 1 (TrxR1) (AID 488773); conditions: purified TrxR1 enzyme activity; at 57.1 µM (top of the series);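 also: drop in NADPH fluorescence over an 8 min run after selenite addition; % is scaled to controls: 0 for no effect and ±100 for the full control effect; nearly all actives have a fitted effect of over 40% in size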
Summary of the method: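 Steps: enzyme (90 nM) plus NADPH (400 uM final), 5 min at ~22 deg C; compound added, 15 min; selenite (400 uM final) added; fluorescence followed for 8 min. Concentration-response curves derived from the normalized delta values.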

CN(C(=O)Cc1ccc(Cl)c(Cl)c1)[C@@H]1CC[C@]2(CCCO2)C[C@H]1N1CCCC1
inactive: ratio change, both ways [1] 2.6% | activity change, negative = inhibition [2] -0.5% | activity change, negative = inhibition [3] -12.4% | activity change, negative = inhibition [4] 2.78% | activity change, negative = inhibition [5] -10.4% | activity change, negative = inhibition [6] -3.78% | activity change, negative = inhibition [7] -9.2% | activity change, negative = inhibition [8] -0.152% | outcome [9] | activity change, negative = inhibition [10] -100% | activity change, negative = inhibition [11] -3.64% | re-replication induction [12] 3.06% | activity, negative = inhibition [13] 3.62% | activation [14] 0.498% | activity change, negative = inhibition [15] 8.72%
